Experimental data as given in ChEMBL document CHEMBL2321737, “Selective inhibition of glycosyltransferases by bivalent imidazolium salts” (Bioorg Med Chem, 2013).

Assay: Inhibition of human GNT1 using Man3-octyl as substrate at 0.5 mM after 1 hr in presence of phosphatidylcholine

- inhibition: < 1%
SMILES: C[n+]1ccn(CCCCCCCCCCCCCCCCCCCCCCn2cc[n+](C)c2)c1
